{"source": "patent US8372973B2", "about": "“Prokineticin 1 receptor antagonists” (Janssen Pharmaceutica N.V., priority 2005, dated 2013)", "test_system": "rat ileal tissues", "data": [{"smiles": "CN1[C@@H]2CC[C@H]1C[C@@H](OC(=O)C(CO)c1ccccc1)C2", "note": "(some centres unmarked) [Atropine, reference compound]", "values": [{"measurement": "blockade of the pro-secretory effect of PK1", "value": "not blocked"}]}, {"smiles": "NC1=N[C@H](O)[C@H]2[C@H]3O[C@]4(O)O[C@@H]([C@@H](O)[C@@]2(N1)[C@@H]4O)[C@]3(O)CO", "note": "[Tetrodotoxin, reference compound]", "values": [{"measurement": "blockade of the pro-secretory effect of PK1", "value": "not blocked"}]}]}
